These are literature values, as cited in patent US7622475B2, “EP2 agonists” (Pfizer Inc, priority 2006, dated 2009).

Amino acid sequences for entries named in this document (tags omitted). A change or cut given only in a name is not applied to a line headed by its entry.
UniProt P43116: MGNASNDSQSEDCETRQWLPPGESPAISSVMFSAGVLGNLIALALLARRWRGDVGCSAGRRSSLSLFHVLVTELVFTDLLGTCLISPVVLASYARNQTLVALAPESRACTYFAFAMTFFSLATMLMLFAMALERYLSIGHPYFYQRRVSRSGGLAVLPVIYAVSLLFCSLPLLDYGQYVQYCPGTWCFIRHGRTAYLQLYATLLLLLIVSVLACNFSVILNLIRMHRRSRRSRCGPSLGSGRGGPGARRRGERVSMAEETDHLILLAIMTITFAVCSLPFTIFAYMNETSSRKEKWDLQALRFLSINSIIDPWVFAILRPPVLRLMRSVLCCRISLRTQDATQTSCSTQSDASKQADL

The structures appear in SMILES notation.

For this series, the target named is EP2 (Homo sapiens, UniProt P43116). Set-up: expressed in transfected cells; host or cells: COS cells. Particulars: COS cells transfected with the human EP2 receptor; read-out: EC50 for the stimulation of cAMP; cited from earlier work.

`CCCCC[C@H](O)/C=C/[C@H]1[C@H](O)CC(=O)[C@@H]1C/C=C\CCCC(=O)O` [PGE2, prostaglandin E2]: the EC50 was around 43 nM.

The EC50 is the concentration at which the effect is half-maximal.
